One substance from patent US20140044713A1 can be followed below.

The chains behind the UniProt entries cited, without tags or fusion partners. Residues count along the entry.
UniProt O75197, 32-1615: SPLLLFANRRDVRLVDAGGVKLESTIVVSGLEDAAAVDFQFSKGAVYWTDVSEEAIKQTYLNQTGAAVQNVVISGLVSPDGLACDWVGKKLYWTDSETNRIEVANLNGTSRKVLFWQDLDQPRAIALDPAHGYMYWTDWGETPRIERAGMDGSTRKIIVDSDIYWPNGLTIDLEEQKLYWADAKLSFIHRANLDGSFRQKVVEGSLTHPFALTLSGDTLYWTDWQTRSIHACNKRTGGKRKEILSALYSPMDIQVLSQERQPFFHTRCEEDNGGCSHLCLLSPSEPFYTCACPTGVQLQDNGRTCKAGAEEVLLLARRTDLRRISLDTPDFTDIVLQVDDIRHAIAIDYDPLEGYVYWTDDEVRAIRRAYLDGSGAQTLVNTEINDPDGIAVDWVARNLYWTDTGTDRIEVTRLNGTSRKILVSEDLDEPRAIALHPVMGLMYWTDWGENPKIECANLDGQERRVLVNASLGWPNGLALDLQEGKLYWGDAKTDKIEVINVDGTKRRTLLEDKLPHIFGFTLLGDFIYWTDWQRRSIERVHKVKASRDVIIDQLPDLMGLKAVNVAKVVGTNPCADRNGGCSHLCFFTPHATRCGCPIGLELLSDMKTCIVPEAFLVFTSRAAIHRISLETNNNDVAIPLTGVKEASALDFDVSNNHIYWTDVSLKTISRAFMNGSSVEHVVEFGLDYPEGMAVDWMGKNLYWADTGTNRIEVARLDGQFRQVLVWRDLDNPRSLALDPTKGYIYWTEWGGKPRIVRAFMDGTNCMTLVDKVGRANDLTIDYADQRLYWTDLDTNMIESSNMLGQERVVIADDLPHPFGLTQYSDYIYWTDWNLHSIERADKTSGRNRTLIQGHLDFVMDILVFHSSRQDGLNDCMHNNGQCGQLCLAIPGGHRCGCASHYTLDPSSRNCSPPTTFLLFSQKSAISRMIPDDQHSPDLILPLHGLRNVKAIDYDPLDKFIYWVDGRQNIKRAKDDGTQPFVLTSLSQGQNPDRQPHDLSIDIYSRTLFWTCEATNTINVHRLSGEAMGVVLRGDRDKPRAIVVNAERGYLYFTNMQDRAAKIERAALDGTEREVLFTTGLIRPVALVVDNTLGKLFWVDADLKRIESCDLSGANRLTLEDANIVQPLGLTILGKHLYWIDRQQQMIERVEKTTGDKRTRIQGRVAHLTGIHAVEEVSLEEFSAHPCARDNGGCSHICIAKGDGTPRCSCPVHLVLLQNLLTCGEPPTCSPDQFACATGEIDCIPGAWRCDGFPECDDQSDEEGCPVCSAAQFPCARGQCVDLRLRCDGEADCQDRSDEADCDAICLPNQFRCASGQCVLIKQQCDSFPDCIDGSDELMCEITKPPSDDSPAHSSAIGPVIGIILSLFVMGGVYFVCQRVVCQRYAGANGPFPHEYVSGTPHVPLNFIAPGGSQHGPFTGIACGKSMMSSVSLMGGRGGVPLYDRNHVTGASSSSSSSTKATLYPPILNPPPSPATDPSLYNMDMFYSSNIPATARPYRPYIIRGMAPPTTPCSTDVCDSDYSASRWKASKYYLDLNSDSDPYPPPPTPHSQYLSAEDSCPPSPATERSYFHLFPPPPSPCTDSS
UniProt O75581, 20-1613: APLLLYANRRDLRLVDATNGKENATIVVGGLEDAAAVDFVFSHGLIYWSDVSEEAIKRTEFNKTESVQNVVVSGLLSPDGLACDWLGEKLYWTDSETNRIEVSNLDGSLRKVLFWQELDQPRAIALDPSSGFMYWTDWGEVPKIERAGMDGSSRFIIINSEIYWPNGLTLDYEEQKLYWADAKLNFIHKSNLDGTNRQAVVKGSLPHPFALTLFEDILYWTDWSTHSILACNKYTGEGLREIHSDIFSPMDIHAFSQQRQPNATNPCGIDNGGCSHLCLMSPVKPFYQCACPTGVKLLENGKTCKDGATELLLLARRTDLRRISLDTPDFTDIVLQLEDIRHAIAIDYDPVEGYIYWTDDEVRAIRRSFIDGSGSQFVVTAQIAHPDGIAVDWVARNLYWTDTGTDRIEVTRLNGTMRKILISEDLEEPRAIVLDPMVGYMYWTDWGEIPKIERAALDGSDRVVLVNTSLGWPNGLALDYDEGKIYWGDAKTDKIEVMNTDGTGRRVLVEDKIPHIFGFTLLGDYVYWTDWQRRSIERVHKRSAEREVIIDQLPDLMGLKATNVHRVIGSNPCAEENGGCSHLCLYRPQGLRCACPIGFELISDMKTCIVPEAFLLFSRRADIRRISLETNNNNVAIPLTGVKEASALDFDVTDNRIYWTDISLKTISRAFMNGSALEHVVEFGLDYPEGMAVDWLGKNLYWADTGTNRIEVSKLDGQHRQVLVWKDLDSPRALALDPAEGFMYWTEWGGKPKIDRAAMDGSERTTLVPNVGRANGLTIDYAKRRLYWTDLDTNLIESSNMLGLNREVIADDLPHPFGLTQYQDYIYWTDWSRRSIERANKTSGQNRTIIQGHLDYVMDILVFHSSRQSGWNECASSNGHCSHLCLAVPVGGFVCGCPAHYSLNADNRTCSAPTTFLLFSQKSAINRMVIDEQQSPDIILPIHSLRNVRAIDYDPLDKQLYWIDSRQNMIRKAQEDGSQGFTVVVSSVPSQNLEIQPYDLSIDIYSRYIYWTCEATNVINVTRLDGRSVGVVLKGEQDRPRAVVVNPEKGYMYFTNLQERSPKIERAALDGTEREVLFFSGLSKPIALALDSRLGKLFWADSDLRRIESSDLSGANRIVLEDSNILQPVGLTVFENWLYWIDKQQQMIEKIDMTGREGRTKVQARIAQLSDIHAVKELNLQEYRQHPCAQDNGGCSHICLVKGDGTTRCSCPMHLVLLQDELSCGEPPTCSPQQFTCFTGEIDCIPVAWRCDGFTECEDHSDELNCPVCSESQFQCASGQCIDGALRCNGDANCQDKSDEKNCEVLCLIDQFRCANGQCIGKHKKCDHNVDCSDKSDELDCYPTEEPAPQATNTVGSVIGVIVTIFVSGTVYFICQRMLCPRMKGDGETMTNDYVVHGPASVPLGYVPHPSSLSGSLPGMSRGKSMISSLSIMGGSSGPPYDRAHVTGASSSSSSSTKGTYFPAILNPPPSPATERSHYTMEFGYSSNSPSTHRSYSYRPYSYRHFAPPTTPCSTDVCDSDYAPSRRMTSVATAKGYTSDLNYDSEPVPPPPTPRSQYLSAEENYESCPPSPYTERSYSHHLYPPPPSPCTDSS
UniProt P41221, 62-380 limits assumed: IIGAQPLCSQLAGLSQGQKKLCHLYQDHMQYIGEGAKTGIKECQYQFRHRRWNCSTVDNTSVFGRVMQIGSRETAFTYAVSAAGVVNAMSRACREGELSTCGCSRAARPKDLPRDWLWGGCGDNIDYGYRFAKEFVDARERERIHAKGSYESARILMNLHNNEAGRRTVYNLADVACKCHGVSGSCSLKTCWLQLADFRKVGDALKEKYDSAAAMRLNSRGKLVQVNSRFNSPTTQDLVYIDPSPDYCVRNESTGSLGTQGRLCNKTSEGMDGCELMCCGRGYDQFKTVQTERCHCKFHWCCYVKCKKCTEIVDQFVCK

The target of test [1] is Lgr4 (endogenous, or expression construct whose tag is not stated) (human) (UniProt Q9BXB1). The test is described as follows: TAP (anti-FLAG, anti-HA) + mass spectrometry, bait transfected in 293T cells, Exp 1, prey row LGR4.
The target in test [2] is LRP5 (endogenous) (human) (UniProt O75197). The test is described as follows: TAP (anti-FLAG, anti-HA) + mass spectrometry, bait transfected in 293T cells, Exp 1, prey row LRP5.
The target in test [3] is LRP6 (endogenous) (human) (UniProt O75581). The test is described as follows: TAP (anti-FLAG, anti-HA) + mass spectrometry, bait transfected in 293T cells, Exp 1, prey row LRP6.
The target of another test is Wnt5a (human) (UniProt P41221). The test is described as follows: TAP (anti-FLAG, anti-HA) + mass spectrometry, bait transfected in 293T cells, Exp 1, prey row Wnt5a.

On to “double-tagged Frizzled7 (Frz7-FH) (from UniProt O75084 33-574) (receptor)”, for which the # unique peptides worked out at 7 in test [1], 1 in test [2], 31 in test [3] and 8 with Wnt5a (human). Also, the MASCOT Protein score (MudPit) amounted to 67 in test [1], 143 in test [2], 1220 in test [3] and 127 in the test with Wnt5a (human). The assigned spectra in test [1] turned out to be 8; in test [2] it was 3; in test [3], 64; with Wnt5a (human), 14.
